From PubChem BioAssay AID624171 (National Center for Advancing Translational Sciences (NCATS), 2012)
The campaign covered roughly 410,000 compounds. About 1,200 (0.29%) were called active. The source calls these results inconclusive, neither active nor inactive. Calls follow the shape of the dose curve; as a rule, active = well fitted activation curve with a large enough effect; inconclusive = small, poorly fitted or top-dose-only effect; inactive = flat fitted curve, though single readings scatter.

test: qHTS of Nrf2 Activators; settings: AREc32 ARE-luciferase reporter (MCF7-derived line), luminescence, 24 h; also: nearly all actives have a fitted effect of over 65% in size
Text: Many diseases have some form of oxidative stress injury and ties to inflammation, causing a host of problems for the patient. The antioxidant response element (ARE) plays an important role in alleviating the harmful effects of oxidative stress. The antioxidant response element (ARE) is a transcriptional regulatory element involved in the activation of genes coding for a number of antioxidant proteins and detoxifying enzymes. These enzymes work in concert to protect tissues from oxidative insults and chemical toxicities in human hepatocytes and immune cells. The protective effects of ARE activation are primarily triggered through Nrf2 (NF-E2-related factor) binding to and activating AREs. It is known that Nrf2 controls the production of over 250 antioxidant and detoxification proteins (Hu et al., 2006), thereby protecting tissues by increasing cellular antioxidant content and suppressing inflammatory signaling pathways. The transcription factor Nrf2 is a central link between oxidative chemicals, such as phenolic antioxidants and electrophilic compounds, and the activation of ARE. Nrf2 levels are constitutively low as a consequence of its interaction with Keap1, which targets its degradation (Zipper and Mulcahy, 2002). Electrophiles react with key cysteine residues in Keap1, releasing Nrf2 and allowing its translocation to the nucleus. Once within the nucleus, Nrf2 complexes with coactivators such as p300, and binds to the AREs to induce gene transcription of cytoprotective enzymes, resulting in the prevention of toxicity. Activation of Nrf2 protects tissues by increasing cellular antioxidant content and suppressing inflammatory signaling pathways. Identifying novel and potent Nrf2 activators by using the AREc32 cell line to detect ARE activation by small molecules will lead to the identification and development of probes to study protective pathways in multiple tissues. These specific probes are essential to study the ARE pathway, and eventually to determine whether this pathway does activate genes that could protect against a host of diseases, including cardiovascular diseases, obesity, diabetes, Alzheimer's, and Parkinson's disease.
This project's aim is to identify novel and potent Nrf2 activators by using the AREc32 cell line to detect ARE activation by small molecules, which will lead to the identification and development of probes to study the ARE pathway.
NIH Chemical Genomics Center [NCGC]
NIH Molecular Libraries Probe Centers Network [MLPCN]
Assay Submitter (PI): Curtis Klaassen, University of Kansas Medical Center
5 uL of 1000 cells/well of AREc32_Fluc cells are seeded into 1536-well plate in OPTI-MEM medium with 5% FBS. […] After the addition of 2.5 uL of Steady-Glo. the plates are kept at RT for 30 min, before they are read on the ViewLux.
Potency is read from the fitted curve at half-maximal effect.

Row | Compound | Potency
1 | O=[N+]([O-])c1cc([N+](=O)[O-])c(CCNc2ccccc2)c([N+](=O)[O-])c1 | inconclusive: 12.6 µM
2 | O=P(Nc1nccs1)(c1ccccc1)c1nc2ccccc2s1 (centres undefined) | inconclusive: 2.82 µM
3 | CS(=O)(=O)c1cc([N+](=O)[O-])c2no[n+]([O-])c2c1 | inconclusive: 17.8 µM
4 | CSc1ccc(Nc2c([N+](=O)[O-])cc([N+](=O)[O-])cc2[N+](=O)[O-])cc1 | inconclusive: 2.82 µM
